{"source": "paper PMC8599628", "about": "(Journal of clinical pharmacology, 2021)", "origin": "cited, not measured here", "key": {"[1]": {"conditions": "cited from earlier work"}, "[2]": {"conditions": "cited from earlier work; for CL/F typical value: myelofibrosis patients"}}, "note": "Where two headings read alike, the source gives them in different places."}
{"smiles": "N#CC[C@H](C1CCCC1)n1cc(-c2ncnc3[nH]ccc23)cn1", "note": "[ruxolitinib]", "values": [{"measurement": "CL/F (mean)", "setting": "[1]; 10 mg tablet, N = 16, %CV 40.6%", "value": 12.6, "unit": "Lhr^−1"}, {"measurement": "CL/F (mean)", "setting": "[1]; 25 mg tablet, N = 47, %CV 29.8%", "value": 16.8, "unit": "L/h"}, {"measurement": "CL/F (mean)", "setting": "[1]; 200 mg tablet, N = 48, %CV 29.6%", "value": "16.9 ± 5.01", "unit": "L/h"}, {"measurement": "Ka", "setting": "[2]", "value": 4.12, "unit": "h⁻¹"}, {"measurement": "Q/F", "setting": "[2]", "value": 2.53, "unit": "L/h"}, {"measurement": "CL/F typical value", "setting": "[2]; men", "value": 22.1, "unit": "L/h"}, {"measurement": "CL/F typical value", "setting": "[2]; women", "value": 17.7, "unit": "L/h"}]}
